Amino acid sequences for entries named in this document (tags omitted).
UniProt P11712, whole entry: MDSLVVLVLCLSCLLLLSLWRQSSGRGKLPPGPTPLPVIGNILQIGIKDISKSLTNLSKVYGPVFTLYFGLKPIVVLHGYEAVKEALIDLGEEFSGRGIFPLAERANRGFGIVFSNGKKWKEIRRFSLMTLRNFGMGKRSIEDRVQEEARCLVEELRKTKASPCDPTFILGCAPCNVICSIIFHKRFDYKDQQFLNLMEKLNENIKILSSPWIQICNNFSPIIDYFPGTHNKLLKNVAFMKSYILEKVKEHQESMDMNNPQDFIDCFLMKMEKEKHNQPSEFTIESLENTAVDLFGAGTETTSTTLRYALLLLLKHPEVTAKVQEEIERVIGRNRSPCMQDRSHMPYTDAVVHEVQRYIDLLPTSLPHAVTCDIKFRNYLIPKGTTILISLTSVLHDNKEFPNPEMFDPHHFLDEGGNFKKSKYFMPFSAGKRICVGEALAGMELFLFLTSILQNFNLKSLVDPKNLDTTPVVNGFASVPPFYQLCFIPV

In article PMC10979493:

Columns and labels:
MIA PaCa-2 tumor = assay: MIA PaCa-2 xenograft model; conditions: orally
CYP2C9 = CYP2C9 (Homo sapiens, UniProt P11712); assay: CYP2C9 inhibition; conditions: safety profiling
[1] = system: MOLM16, OCI-AML3, Karpas-299, SUDHL-1, MDA-MB-231, MDA-MB-468; assay: Cell viability (MTS), non-PDAC STAT3-dependent cell lines
Method: (§1) acute myeloid leukemia cell line (KG1), human atrial fibroblast (HAF), human […]
(§2) umbilical vein endothelial cell line (HUVEC), human embryonic kidney cell line […]
(§3) (HEK293T) was purchased from Cell Bank/Stem Cell Bank of the Chinese Academy […]
(§4) of Sciences and American Type Culture Collection (ATCC). Capan-2, PANC-1 and […]
(§5) HEK293T were cultured in Dulbecco’s Modified Eagle’s Medium (DMEM) supplemented with 10% fetal bovine serum (FBS) and 1% penicillin-streptomycin, and […]
(§6) additional 2.5% horse serum was added in the medium of MIA PaCa-2; AsPC-1, BxPC- […]
(§7) 3, PC3 and KG1 were cultured in RPMI 1640 medium supplemented with 10%-20% […]
(§8) FBS and 1% penicillin-streptomycin; HPAC was cultured in Dulbecco's Modified […]
(§9) Eagle Medium/Nutrient Mixture F-12 medium (DMEM/F-12), SW1990 was cultured […]
(§10) in Leibovitz's L-15 Medium, CFPAC-1 was cultured in Iscove's Modified Dulbecco's […]
(§11) Medium. HUVEC was cultured in Ham's F-12K supplemented with 0.1mg/mL Heparin, […]
(§12) 0.03-0.05mg/mL ECGs, 10% FBS and 1% penicillin-streptomycin. HAF was cultured […]
(§13) in Fibroblast Medium supplemented with 10% FBS, 1% Fibroblast Growth Supplement […]
(§14) (FGS) and 1% penicillin-streptomycin.
(§15) Cell viability was measured by MTS assay following the manufacturer ’s instructions.
(§16) Briefly, cancer cells or normal cells were seeded in 96-well plates at appropriate […]

ROS levels in PDAC cells = assay: Reactive oxygen species (ROS) assay; conditions: 20 h
Method: (§17) Luciferase reporter assay
(§18) The HEK293T cells were seeded in 24-well plates, The 500 ng STAT3 luciferase […]
(§19) mutation plasmids and 10 ng Renilla plasmids were co-transfection into each well of
(§20) plates with Lipofectamine 2000 reagent (Invitrogen) and incubated for 20-24 h. Then,
(§21) the cells were added with IL-6 (20 ng/mL). Luciferase assays were performed by using
(§22) the Dual Luciferase Reporter Assay System (Promega) according to manufacturer’s
(§23) instructions. The firefly luciferase activities were normalized against Renilla luciferase
(§24) Mitochondrial membrane potential assay
(§25) Mitochondrial membrane potential was assessed following the manufacturer's
(§26) instructions (Beyotime, C2006). Briefly, the cells were seeded in 6-well plates, YY002
(§27) treated for 24h. Then the cells were washed with PBS and incubated with JC‐1 probe
(§28) in 1× dye working buffer for 20 min at 37°C. After washing with cleaning buffer,
(§29) JC‐1 monomers and JC‐1 aggregates were detected with Flow cytometry to indicate
(§30) mitochondrial membrane potential.
(§31) Reactive Oxygen Species (ROS) Assay
(§32) ROS assay was performed following the manufacturer's instructions (Beyotime,
(§33) S0033S). Briefly, the pancreatic cancer cells were seeded in 6-well plates, YY002
treated for 20h. Then the cells were wash with cold PBS for three times. Dilute 2',7'- […]
DCFH-DA that has not entered the cells. ROS signal was detected by FACS. […]

[2] = system: mitochondrial membrane potential; assay: Mitochondrial membrane potential assay (JC-1); conditions: PANC-1 cells
Method: as §17, §18, §19, §20, §21, §22, §23, §24, §25, §26, §27, §28, §29, §30, §31, §32, §33
treated for 20h. Then the cells were wash with cold PBS for three times. Dilute 2',7'-
Dichlorodihydrofluorescein diacetate (DCFH-DA) with serum-free culture medium at […]

[3] = system: shSTAT3 PDAC cells (Capan-2, PANC-1); assay: Cell viability in shSTAT3 knockdown PDAC cells; conditions: 72 h
Method: The shRNAs for silencing STAT3 are listed in Supplementary Table S1. ShRNAs were respectively inserted into pLKO.1 vector, then were cotransfected into 293T cells with the packing plasmids pMD2G and pXPAX2, using Lipofectamine 2000 (Thermo Fisher Scientific, Beijing, China). After transfection for 72 h, the harvested lentiviruses were infected into tumor cell lines and puromycin was added to screen for stable STAT3 knockdown cells. Finally, the knockdown efficiency was detected by Western blot. […]
as §1, §2, §3, §4, §5, §6, §7, §8, §9
Cell viability was measured by MTS assay following the manufacturer ’s instructions. […]

STAT3 negative PC3 cells = assay: Colony formation, PC3 cells
Method: Tumor cells were seeded into 6-well plates, allowing attachment overnight. The test compounds were added at indicated concentrations for 1 week of treatment. Then colonies were fixed by 4% paraformaldehyde (PFA) and then stained with 0.2% crystal violet. Images were photographed using a digital camera, and colonies were quantified by manual counting.

PC3, KG1, HUVEC and HAF = assay: Cell viability (MTS), low p-STAT3 cell lines; conditions: low level of p-STAT3 cell lines, 72 h
Method: as §1, §2, §3, §4, §5, §6, §7, §8, §9, §10, §11, §12, §13, §14, §15, §16

Compound: Cn1c(C(=O)N2CCN(Cc3ccc(OCC(F)(F)F)cc3)CC2)cc2ccc(Oc3cnc(-c4nc(-c5ccc(C(F)(F)F)cc5)no4)cn3)cc21
- TGI rate (MIA PaCa-2 tumor; 5 mg/kg): 85.06 ± 9.28%
- TGI rate (MIA PaCa-2 tumor; 20 mg/kg): 61.24 ± 9.68%
- IC50 (CYP2C9): > 25 µM
- Death of STAT3-dependent non-PDAC cell lines [1]: specific death of STAT3-dependent cell lines
- ROS levels (ROS levels in PDAC cells): significantly increased ROS levels
- Mitochondrial membrane potential (MMP) [2]: drastically affected
- Effect on cell viability upon STAT3 knockdown [3]: loss of YY002 treatment efficacy upon STAT3 knockdown
- Effect on colony formation (STAT3 negative PC3 cells): little impact
- Plasma t1/2 (Plasma stability, monkey): > 2 h
- Sensitivity of proliferation (PC3, KG1, HUVEC and HAF): relative insensitive
